Measured values from patent US20240010694A1, “HYDROGELS CONTAINING AFFIBODIES AND USES THEREOF” (University of Oregon, priority 2022, published 2024).

Assays:
[1] = tested on: C2C12 cells; test: C2C12 alkaline phosphatase activity assay; assay type: cell-based, murine; conditions: 20 nM BMP-2 alone, 72 hours
Method: After 72 h, the cells were lysed with Cellytic M (Millipore Sigma), and their ALP activity was quantified and normalized to the total amount of double stranded DNA (dsDNA) present in each well.^88 For the ALP colorimetric assay, 50 μL buffer solution consisting of equal volumes of 1.5 M 2-amino-2methyl-1-propanol solution pH 10.25, 20 mM p-nitrophenyl phosphate solution, and 10 mM MgCl2 hexahydrate solution were mixed with 50 μL of lysed cells and incubated in the dark for 20 minutes before the absorbance of the solutions was read at 405 nm (Synergy Neo2, Biotek). The colorimetric change in the solutions was converted to p-nitrophenol concentration using a calibration curve of 0-0.8 μmol mL^−1 4-nitrophenol solution (Millipore Sigma). The QuantiFluor dsDNA System (Promega) was used for dsDNA quantification. The ALP activity in each well was normalized to the dsDNA content to account for variability in cell number between samples.
After 72 hours, cells were lysed and their ALP activity was quantified by a colorimetric change caused by the ALP-induced catalysis of p-nitro phenyl phosphate to p-nitrophenol.^88 ALP activity was normalized to the total amount of double-stranded DNA present in each cell culture.

[2] = molecular target: T1, BMP receptor type II (BMPR-II) (Homo sapiens, UniProt Q13873); conditions: read-out: KD, BMP-2 knuckle epitope with BMPR-II; cited from earlier work
T1 sequence (Q13873 27-1038): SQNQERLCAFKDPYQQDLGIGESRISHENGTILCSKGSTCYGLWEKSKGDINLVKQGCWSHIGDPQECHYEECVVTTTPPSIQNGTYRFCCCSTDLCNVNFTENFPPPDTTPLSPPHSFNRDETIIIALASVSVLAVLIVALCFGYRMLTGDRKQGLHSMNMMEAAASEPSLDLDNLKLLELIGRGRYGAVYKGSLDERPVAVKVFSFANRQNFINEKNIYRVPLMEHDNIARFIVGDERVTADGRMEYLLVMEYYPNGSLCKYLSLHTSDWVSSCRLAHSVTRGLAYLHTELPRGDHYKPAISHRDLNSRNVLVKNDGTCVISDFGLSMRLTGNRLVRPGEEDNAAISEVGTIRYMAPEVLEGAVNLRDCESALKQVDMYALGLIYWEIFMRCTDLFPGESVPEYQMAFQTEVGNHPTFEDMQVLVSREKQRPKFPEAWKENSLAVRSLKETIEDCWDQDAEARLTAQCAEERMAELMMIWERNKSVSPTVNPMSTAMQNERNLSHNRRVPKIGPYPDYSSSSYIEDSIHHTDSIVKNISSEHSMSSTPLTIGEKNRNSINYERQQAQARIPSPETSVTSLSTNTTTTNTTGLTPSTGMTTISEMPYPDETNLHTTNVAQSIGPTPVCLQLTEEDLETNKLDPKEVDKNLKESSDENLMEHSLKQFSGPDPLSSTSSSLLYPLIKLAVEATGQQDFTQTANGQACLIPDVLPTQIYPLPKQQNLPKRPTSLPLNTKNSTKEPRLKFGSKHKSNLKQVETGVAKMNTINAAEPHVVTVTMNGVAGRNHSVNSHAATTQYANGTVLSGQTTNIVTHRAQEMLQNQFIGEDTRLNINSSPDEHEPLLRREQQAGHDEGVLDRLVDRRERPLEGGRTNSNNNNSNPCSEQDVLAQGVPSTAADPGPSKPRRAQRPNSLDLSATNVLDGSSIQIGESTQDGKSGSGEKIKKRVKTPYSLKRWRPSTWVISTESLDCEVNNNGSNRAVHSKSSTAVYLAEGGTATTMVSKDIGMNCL

BMP-2: Recombinant human BMP-2 (Medtronic, R&D Systems)
normalized ALP activity [1]: 37.9±12.5 nmol pNPP μg^−1 dsDNA min^−1 | Kd [2]: ~100 nM
